The test relates to EA.hy 926. Kind of test: Antiangiogenic activity in human EA.hy 926 cells measured after 24 hrs by MTT assay. The class given is functional, cell-based. (In general: Formazan colour is commonly taken as a measure of viable cells.)

`Cc1ncsc1-c1ccc(CNC(=O)[C@@H]2C[C@@H](O)CN2C(=O)[C@@H](NC(=O)CCCCCCCCCCC(=O)n2nc(N)c3c(-c4cccc(NC(=O)Nc5cccc(C(C)C)c5)c4)cccc32)C(C)(C)C)cc1`: the Activity entry was “Dose-dependent effect”.

For the compound `Cc1ccc(F)c(NC(=O)Nc2ccc(-c3cccc4c3c(N)nn4C(=O)CCCCCCCCCCC(=O)N[C@H](C(=O)N3C[C@H](O)C[C@H]3C(=O)NCc3ccc(-c4scnc4C)cc3)C(C)(C)C)cc2)c1`, the Activity result is “Dose-dependent effect”.
